Laboratory results reported in ChEMBL document CHEMBL1134162 (Bioorg Med Chem Lett, 2001).
pKi: −log10 of the molar value.

Chains of the proteins cited; added tags and fusions are not shown.
UniProt P33535, whole entry: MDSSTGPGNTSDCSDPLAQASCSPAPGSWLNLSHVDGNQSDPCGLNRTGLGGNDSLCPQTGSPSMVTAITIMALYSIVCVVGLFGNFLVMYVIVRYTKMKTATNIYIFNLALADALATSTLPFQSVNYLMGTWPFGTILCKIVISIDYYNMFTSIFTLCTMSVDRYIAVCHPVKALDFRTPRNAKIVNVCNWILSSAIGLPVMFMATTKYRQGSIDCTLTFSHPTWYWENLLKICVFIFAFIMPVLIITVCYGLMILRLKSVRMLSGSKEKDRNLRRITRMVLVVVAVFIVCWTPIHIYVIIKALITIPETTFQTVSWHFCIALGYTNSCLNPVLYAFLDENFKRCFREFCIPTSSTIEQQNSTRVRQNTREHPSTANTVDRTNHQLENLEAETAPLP

Biological target: Mu-type opioid receptor (Rattus norvegicus, UniProt P33535)
Assay: Binding affinity was determined towards Opioid receptor mu 1 in rat brain synaptosomes using [3H]DAMGO as radioligand.

Cc1cccc(C)c1C[C@H](NC(=O)CNC(=O)CNC(=O)[C@@H](N)Cc1ccc(O)cc1)C(=O)N[C@@H](CC(C)C)C(=O)O
pKi: 5.60
